Literature values, collected in patent publication US8221566B1.

Test system: bacteria
Settings: compared with common acid species

Substance: hydrogen chloride
- Bactericidal activity: among the poorest bactericidal activities of common acid species
